Assay [1] has as its system Pseudomonas aeruginosa (ATCC 9027).
A further assay relates to HSV1. Particulars: 1 h.

Structures are written as SMILES.

Experimental findings from PMC2855520, “Anti-infective activity of apolipoprotein domain derived peptides in vitro: identification of novel antimicrobial peptides related to apolipoprotein B with anti-HIV activity” (BMC Immunology, 2010) are described below.

As for `CC(C)C[C@H](NC(=O)[C@H](CC(C)C)NC(=O)[C@H](CCCNC(=N)N)NC(=O)[C@H](CCCCN)NC(=O)[C@H](CCCNC(=N)N)NC(=O)[C@H](CC(C)C)NC(=O)[C@H](CCCCN)NC(=O)[C@H](CCCNC(=N)N)NC(=O)[C@H](CC(C)C)NC(=O)[C@H](Cc1c[nH]cn1)NC(=O)[C@H](CO)NC(=O)[C@H](C)NC(=O)[C@H](CC(C)C)NC(=O)[C@H](CCCNC(=N)N)NC(=O)[C@@H](NC(=O)[C@H](CCCNC(=N)N)NC(=O)[C@H](CC(C)C)NC(=O)[C@H](CCC(=O)O)NC(=O)[C@H](CCC(=O)O)NC(=O)[C@@H](NC(=O)[C@H](CO)NC(=O)[C@@H](N)CCC(N)=O)[C@@H](C)O)C(C)C)C(=O)O` [apoE128-149], the IC50 in assay [1] came to 54 µM; with HSV1, 36.5 µM.

One may read the IC50 as the midpoint of a concentration-inhibition curve. A lower IC50 goes with higher potency.
